Amino acid sequences for entries named in this document (tags omitted). A change or cut given only in a name is not applied to a line headed by its entry.
UniProt Q01726: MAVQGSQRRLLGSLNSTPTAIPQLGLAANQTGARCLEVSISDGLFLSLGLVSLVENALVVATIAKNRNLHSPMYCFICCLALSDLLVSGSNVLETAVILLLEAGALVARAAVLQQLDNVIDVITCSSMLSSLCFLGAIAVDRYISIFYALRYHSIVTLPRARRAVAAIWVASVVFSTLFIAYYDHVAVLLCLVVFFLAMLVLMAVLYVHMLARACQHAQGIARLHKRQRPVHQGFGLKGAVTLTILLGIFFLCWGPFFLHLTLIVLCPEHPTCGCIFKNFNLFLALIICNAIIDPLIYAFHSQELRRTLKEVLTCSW

According to patent US9447148B2, “Melanocortin-1 receptor-specific cyclic peptides” (Palatin Technologies, Inc., priority 2009, dated 2016):

How the values were obtained:
[1] = biological target: hMCR-1 (Homo sapiens (Human), UniProt Q01726); test: Assay for agonist activity: intracellular cAMP accumulation in HBL human melanoma cells; assay type: cell-based; settings: HBL cells expressing hMCR-1, averaged, read-out: MC-1 EC50 (average; cAMP HBL)
Protocol: Confluent HBL cells that express hMCR-1 or HEK-293 cells that express recombinant hMCR-4 were detached from culture plates by incubation in enzyme-free cell dissociation buffer. Dispersed cells were suspended in Earle's Balanced Salt Solution containing 10 mM HEPES (pH 7.5), 1 mM MgCl2, 1 mM glutamine, 0.5% albumin and 0.3 mM 3-isobutyl-1-methyl-xanthine (IBMX), a phosphodiesterase inhibitor. The cells were plated in 96-well plates at a density of 0.4×10^5 cells per well for HBL cells and 0.5×10^5 cells per well for HEK-293 cells and pre-incubated for 10 minutes. Cells were exposed for 15 minutes at 37° C. to peptides of the present invention dissolved in DMSO (final DMSO concentration of 1%) at a concentration range of 0.05-5000 nM in a total assay volume of 200 μL. […] Data analysis was performed by nonlinear regression analysis with Graph-Pad Prism® software.
(§1) Peptides of the following structures were synthesized and averaged MCR-1 and MCR-4 Ki values were determined as indicated. […] All results are expressed in nM except for Emax values, which are percentage values. Peptides with the captioned primary sequence were synthesized and purified as described in Section 5 above, with the resulting peptide having the structure depicted.

[2] = biological target: hMCR-1a (Homo sapiens (Human), UniProt Q01726); test: Competitive inhibition binding assay using [I125]-NDP-α-MSH, hMCR-1a; settings: membrane homogenates of HEK-293 cells, human recombinant receptor, averaged, read-out: MC-1 Ki (average)
Protocol: A competitive inhibition binding assay was performed using membrane homogenates prepared from HEK-293 cells that express recombinant hMCR-1a or hMCR-4 (in each instance where the h prefix refers to human), or alternatively membrane homogenates from B16-F10 mouse melanoma cells containing endogenous murine MCR-1. In the examples that follow, all MCR-1 and MCR-4 values are for human recombinant receptors, unless otherwise noted. Assays were performed in 96 well polypropylene round-bottom plates (VWR catalog number 12777-030). […] After incubation for 90 minutes at 37° C., the assay mixture was filtered onto GF/B Unifilter plates (Perkin-Elmer catalog number 6005177) and washed with 3 mL of ice-cold buffer per well. Filters were air dried and 35 μL of scintillation cocktail added to each well. Plates were counted in a Microbeta counter for bound radioactivity. […] Each assay was conducted in duplicate and the actual mean values are described, with results less than 0% reported as 0%. Ki values for peptides of the present invention were determined using Graph-Pad Prism® curve-fitting software.
as §1

Row | SMILES | EC50 [1] | Ki [2]
1 | CC(=O)N[C@H](Cc1ccccc1)C(=O)N[C@H]1CCC(=O)NCC[C@@H](C(=O)N[C@@H](Cc2c[nH]c3ccccc23)C(N)=O)NC(=O)[C@H](CCCNC(=N)N)NC(=O)[C@@H](Cc2ccccc2)NC(=O)[C@H](Cc2c[nH]cn2)NC1=O [Example 9.12, Ac-D-Phe-cyclo(Glu-His-D-Phe-Arg-Dab)-Trp-NH2] | 15 pM | –
2 | CC(=O)N[C@@H](Cc1ccccc1)C(=O)N[C@H]1CCC(=O)NCC[C@@H](C(=O)N[C@@H](Cc2c[nH]c3ccccc23)C(N)=O)NC(=O)[C@H](CCCNC(=N)N)NC(=O)[C@@H](Cc2ccccc2)NC(=O)[C@H](Cc2c[nH]cn2)NC1=O [Example 9.13, Ac-Phe-cyclo(Glu-His-D-Phe-Arg-Dab)-Trp-NH2] | 10 pM | –
3 | CCCC[C@H](NC(C)=O)C(=O)N[C@H]1CCC(=O)NCC[C@@H](C(=O)N[C@H](Cc2ccc3ccccc3c2)C(N)=O)NC(=O)[C@H](CCCNC(=N)N)NC(=O)[C@@H](Cc2ccccc2)NC(=O)[C@H](Cc2c[nH]cn2)NC1=O [Example 9.11, Ac-Nle-cyclo(Glu-His-D-Phe-Arg-Dab)-D-Nal 2-NH2] | 5 pM | 0.02 nM
4 | CCCC[C@H](NC(C)=O)C(=O)N[C@H]1CCC(=O)NCC[C@@H](C(=O)N[C@H](Cc2cccc3ccccc23)C(N)=O)NC(=O)[C@H](CCCNC(=N)N)NC(=O)[C@@H](Cc2ccccc2)NC(=O)[C@H](Cc2c[nH]cn2)NC1=O [Example 9.9, Ac-Nle-cyclo(Glu-His-D-Phe-Arg-Dab)-D-Nal 1-NH2] | 8 pM | 0.1 nM
5 | CCCCC(=O)N[C@H]1CCC(=O)NCC[C@@H](C(=O)N[C@@H](Cc2c[nH]c3ccccc23)C(N)=O)NC(=O)[C@H](CCCNC(=N)N)NC(=O)[C@@H](Cc2ccccc2)NC(=O)[C@H](Cc2c[nH]cn2)NC1=O [Example 9.16, CH3—(CH2)3—C(═O)-cyclo(Glu-His-D-Phe-Arg-Dab)-Trp-NH2] | 5 pM | –
6 | CCCC[C@H](NC(C)=O)C(=O)N[C@H]1CCNC(=O)CCC(=O)NC[C@@H](C(=O)N[C@@H](Cc2c[nH]c3ccccc23)C(N)=O)NC(=O)[C@H](CCCNC(=N)N)NC(=O)[C@@H](Cc2ccccc2)NC(=O)[C@H](Cc2c[nH]cn2)NC1=O [Example 9.29] | 6 pM | –

Stronger by EC50 [1], values ahead:

Row | EC50 [1] | Ki [2] | SMILES
7 | 4 pM | 0.01 nM | CCCC[C@H](NC(C)=O)C(=O)N[C@H]1CCC(=O)NCC[C@@H](C(=O)N[C@@H](Cc2ccc3ccccc3c2)C(N)=O)NC(=O)[C@H](CCCNC(=N)N)NC(=O)[C@@H](Cc2ccccc2)NC(=O)[C@H](Cc2c[nH]cn2)NC1=O [Example 9.10, Ac-Nle-cyclo(Glu-His-D-Phe-Arg-Dab)-Nal 2-NH2]
8 | 3 pM | – | CCCCCCC(=O)N[C@H]1CCC(=O)NCC[C@@H](C(=O)N[C@@H](Cc2c[nH]c3ccccc23)C(N)=O)NC(=O)[C@H](CCCNC(=N)N)NC(=O)[C@@H](Cc2ccccc2)NC(=O)[C@H](Cc2c[nH]cn2)NC1=O [Example 9.18, CH3—(CH2)5—C(═O)-cyclo(Glu-His-D-Phe-Arg-Dab)-Trp-NH2]
9 | 2 pM | 0.005 nM | CCCC[C@H](NC(C)=O)C(=O)N[C@H]1CCC(=O)NCC[C@@H](C(=O)N[C@@H](Cc2cccc3ccccc23)C(N)=O)NC(=O)[C@H](CCCNC(=N)N)NC(=O)[C@@H](Cc2ccccc2)NC(=O)[C@H](Cc2c[nH]cn2)NC1=O [Example 9.30, Ac-Nle-cyclo(Glu-His-D-Phe-Arg-Dab)-Nal 1-NH2]
